The target in the assay is Cannabinoid receptor 1 (Rattus norvegicus, UniProt P20272). The assay is described as follows: […] [3H]WIN-55212 binding to Cannabinoid receptor 1 in rat cerebellum membranes. Format: cell membranes, Membrane.

Protein sequences, listed by entry. Tags and fused reporters are not part of them.
UniProt P20272, whole entry: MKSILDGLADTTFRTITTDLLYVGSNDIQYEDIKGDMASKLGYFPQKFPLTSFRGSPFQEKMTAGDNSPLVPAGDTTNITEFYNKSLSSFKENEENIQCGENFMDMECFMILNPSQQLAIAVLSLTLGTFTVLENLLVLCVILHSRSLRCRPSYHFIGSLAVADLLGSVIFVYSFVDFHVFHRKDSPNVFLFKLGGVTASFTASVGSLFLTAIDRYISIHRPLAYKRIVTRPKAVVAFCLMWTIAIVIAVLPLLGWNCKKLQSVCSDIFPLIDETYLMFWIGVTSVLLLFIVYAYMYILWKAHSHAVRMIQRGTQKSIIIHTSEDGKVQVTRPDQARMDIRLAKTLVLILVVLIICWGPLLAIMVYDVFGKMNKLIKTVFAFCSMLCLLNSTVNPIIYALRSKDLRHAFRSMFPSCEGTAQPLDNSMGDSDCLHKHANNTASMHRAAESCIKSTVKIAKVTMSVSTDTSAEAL

Each structure is given as a SMILES string.

For one compound, IC50 results are on record in ChEMBL document CHEMBL1128746, “Aminoalkylindoles: structure-activity relationships of novel cannabinoid mimetics” (J Med Chem, 1995).

As usually defined, the IC50 is the concentration that gives 50% inhibition. Read a low IC50 as higher potency. As for `Cc1c(C(=O)c2ccc3cccnc3c2)c2ccccc2n1CCN1CCOCC1`, the IC50 was 177 nM.
